{"sequences": {"note": "The chains behind the UniProt entries cited, without tags or fusion partners.", "UniProt P25103, whole entry": "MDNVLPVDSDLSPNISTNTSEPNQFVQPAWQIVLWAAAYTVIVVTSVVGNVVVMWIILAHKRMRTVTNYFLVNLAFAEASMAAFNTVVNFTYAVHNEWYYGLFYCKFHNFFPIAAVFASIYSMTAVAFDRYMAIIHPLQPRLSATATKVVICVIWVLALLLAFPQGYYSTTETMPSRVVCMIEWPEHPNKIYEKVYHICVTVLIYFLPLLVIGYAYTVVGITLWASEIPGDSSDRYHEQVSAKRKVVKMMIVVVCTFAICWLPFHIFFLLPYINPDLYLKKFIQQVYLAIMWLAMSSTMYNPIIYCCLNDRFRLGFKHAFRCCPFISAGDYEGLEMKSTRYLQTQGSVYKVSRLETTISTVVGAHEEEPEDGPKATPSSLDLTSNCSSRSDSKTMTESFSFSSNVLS"}, "source": "patent US5698710A", "about": "“Tachykinins antagonists” (A. Menarini Industrie Farmaceutiche Riunite S.r.l., priority 1994, dated 1997)", "target": "T1, NK1 receptors (Homo sapiens, UniProt P25103)", "T1 construct": "endogenous in cells; host or cells: IM9 cells (intact)", "experiment": "[^3 H]SP saturation experiments in IM9 cells", "type": "binding", "conditions": "[^3 H]SP radioligand, read-out: average value of Kd calculated in saturation experiments", "method": "The evaluation of the antagonist acivity of NK1 receptors was performed with binding and functional tests.\n[^3 H]SP Binding Assay in IM9 Cell Line\nThe assay was carried out on intact cells as described by Payan et al. (1984). The cells were washed with buffer A at pH 7.5 containing (in mM) Tris-HCl 50, NaCl 150 and 0.02% BSA, thereafter were resuspended in a dosage buffer (buffer A added with protease inhibitors), concentration 1×10^7 cells/ml. The cells were incubated with [^3 H]SP in a final volume of 0.5 ml for 60' at room temperature. The non-specific binding was calculated in the presence of […] of non-radioactive SP. The dosage mixture was poured in test tubes for microcentrifugation which were preadsorbed in a solution of BSA 0.5% for at least 3 hours. [^3 H]SP, free and binded, was separated by cell sedimentation with a microcentrifuge (6 min at 12000 g); the supernatant was removed by aspiration. For competitive tests, The cells IM9 were incubated in triplicate with 0.3 nM of [^3 H]SP (average value of Kd calculated in saturation experiments) and the competitive ligands were added at six different concentrations (with dilution 1:10 in the dosage buffer) in order to obtain a complete competition curve. The affinity was measured as pKi.", "data": [{"substance": "[^3 H]SP: tritiated Substance P (SP), radioligand of the IM9 binding assay", "values": [{"measurement": "Kd", "value": 300, "unit": "pM"}]}]}
